Results from patent US7323465B2, “Alkansulfonamides as endothelin antagonists” (Actelion Pharmaceuticals Ltd., priority 2002, dated 2008).

By UniProt entry, the sequences of proteins in these tests, tags left out. Residues count along the entry.
UniProt P24530, 27-442 limits assumed: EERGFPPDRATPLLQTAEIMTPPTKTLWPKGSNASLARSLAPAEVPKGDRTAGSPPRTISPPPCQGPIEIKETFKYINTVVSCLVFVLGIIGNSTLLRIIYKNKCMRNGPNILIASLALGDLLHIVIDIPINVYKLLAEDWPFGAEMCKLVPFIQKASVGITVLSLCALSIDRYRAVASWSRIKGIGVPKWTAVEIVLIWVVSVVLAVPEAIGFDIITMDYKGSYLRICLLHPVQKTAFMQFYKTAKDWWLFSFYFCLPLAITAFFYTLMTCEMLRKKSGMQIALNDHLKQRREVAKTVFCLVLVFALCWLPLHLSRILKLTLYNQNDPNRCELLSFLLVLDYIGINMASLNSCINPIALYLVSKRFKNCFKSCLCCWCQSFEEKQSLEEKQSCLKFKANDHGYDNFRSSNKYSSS
UniProt P25101, 21-427 limits assumed: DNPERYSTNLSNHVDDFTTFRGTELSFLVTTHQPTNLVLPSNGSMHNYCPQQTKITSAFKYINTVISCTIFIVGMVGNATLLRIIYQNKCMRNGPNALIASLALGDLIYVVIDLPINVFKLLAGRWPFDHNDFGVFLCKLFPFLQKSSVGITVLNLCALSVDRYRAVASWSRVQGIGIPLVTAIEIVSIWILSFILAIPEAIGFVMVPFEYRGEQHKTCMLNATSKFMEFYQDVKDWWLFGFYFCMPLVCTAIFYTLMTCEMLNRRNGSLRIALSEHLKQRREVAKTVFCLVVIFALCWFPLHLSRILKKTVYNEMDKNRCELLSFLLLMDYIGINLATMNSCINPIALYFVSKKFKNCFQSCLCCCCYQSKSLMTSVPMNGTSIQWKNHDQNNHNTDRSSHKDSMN

Experiments:
[1] = biological target: human recombinant ETB receptors (Homo sapiens, UniProt P24530); experiment: Inhibition of [125I]ET-1 binding to membranes from CHO cells carrying human ETB receptors; settings: read-out: IC50 ETB; CHO cell membranes, 8 pM [125I]ET-1, 2 h at 20° C., 2.5% DMSO
[2] = biological target: human recombinant ETA receptors (Homo sapiens, UniProt P25101); experiment: Inhibition of [125I]ET-1 binding to membranes from CHO cells carrying human ETA receptors; settings: read-out: IC50 ETA; CHO cell membranes, 8 pM [125I]ET-1, 2 h at 20° C., 2.5% DMSO

Compound	IC50 [1] [nM]	IC50 [2] [nM]
CCCS(=O)(=O)Nc1ncnc(OCCOc2ncc(SC)cn2)c1Oc1cc(OC)ccc1Cl	109	0.8
COc1ccc(Cl)c(Oc2c(NS(C)(=O)=O)ncnc2OCCOc2ncc(S(C)(=O)=O)cn2)c1		2.8
CCCS(=O)(=O)Nc1ncnc(OCCOc2ncc(OC)cn2)c1Oc1cc(OC)ccc1Cl	417	4
CCCS(=O)(=O)Nc1ncnc(OCCOc2ncc(S(C)(=O)=O)cn2)c1Oc1cc(OC)ccc1Cl	236	0.6
COc1cnc(OCCOc2ncnc(NS(C)(=O)=O)c2Oc2cc(OC)ccc2Cl)nc1	349	8.7
COc1ccc(Cl)c(Oc2c(NS(C)(=O)=O)ncnc2OCCOc2ncc(SC)cn2)c1	85	1.99

Now from value to compound:

IC50 [1] [nM]	IC50 [2] [nM]	Compound
258	1.6	CCS(=O)(=O)Nc1ncnc(OCCOc2ncc(Br)cn2)c1Oc1cc(OC)ccc1Cl
216	2	COc1ccc(Cl)c(Oc2c(NS(C)(=O)=O)ncnc2OCCOc2ncc(Br)cn2)c1
350	1	CCCS(=O)(=O)Nc1ncnc(OCCOc2ncc(Br)cn2)c1Oc1cc(OC)ccc1Cl
69	1	CCS(=O)(=O)Nc1ncnc(OCCOc2ncc(SC)cn2)c1Oc1cc(OC)ccc1Cl
